Laboratory results as given in patent US8431561B2 (priority 2004, dated 2013).
Only a part of the results on these compounds is given; other tests are left out.

System: BHK cells
Test: cobinamide uptake into mammalian cells
Details: 100 nM to 100 μM, 5 min, 37° C.
From the text: Measurement of Cobinamide Uptake into Mammalian Cells. To study cobinamide uptake into mammalian cells, cobinamide was radioactively labeled with [^14C] by adding two molar equivalents of [^14C]-KCN (54 mCi/mmol, Moravek Biochemicals) to form [^14C]-dicyanocobinamide ([^57Co]-cobalamin is no longer commercially available). The binding affinity of cyanide for cobinamide is extremely high (K overall −10^22 M^−1) (Pratt, J. M. (1972) Inorganic chemistry of vitamin B12, Academic Press, London-New York), but to be sure no [^14C]-KCN remained, the pH was lowered to 6 to form HCN (pKa of KCN is 9.2), and then bubbled argon through the solution to remove any [^14C]-HCN. The specific activity of the [^14C]-dicyanocobinamide product was 104 mCi/mmol (using a molar extinction coefficient of 2.8×10^4 at 348 nm) (Ford et al., J. Inorg. Biochem. 41: 235-244, 1991).
In the uptake studies, approximately 1×10^6 baby hamster kidney (BHK) cells cultured in Dulbecco's Modified Eagles' (DME) medium containing 10% fetal bovine serum (FBS) were grown to sub-confluence in six well cluster dishes. The cells were incubated at 37° C. for 5 min with [^14C]-dicyanocobinamide at concentrations ranging from 100 nM to 100 μM. […] The cell pellet was dissolved in 500 μl of 0.1 N NaOH, and radioactivity in sample aliquots was measured by liquid scintillation counting. […]

Substance: dicyanocobinamide
- radioactivity in BHK cells (uptake): progressive curve-linear increase in radioactivity
